Data set [1] has as its system A549 human lung cancer cells. The data set can be described thus: sEV cellular uptake assay (time-lapse EGFP fluorescence imaging, MSD analysis of trajectories). The data set is classed as cell-based. The procedure:
First, cellular uptake efficiency of sEV-Y, which targets EGFR as a specific antigen, in A549 human lung cancer cells was investigated using time-lapse fluorescence imaging and EGFP fluorescence intensity, with the results shown in FIGS. 17 and 18. Additionally, representative mean square displacement (MSD) analysis was performed on trajectories showing directional movement 2 hours after treatment. Diffusion types are classified into superdiffusion (active transport), normal diffusion (random movement), and confined diffusion (restricted movement). A549-Luc2 cells were seeded in a fibronectin-coated dish at a density of 5 × 10^3 cells per well. After 24 hours, the cells were incubated with different treatments according to the experimental focus. To prepare cetuximab-conjugated sEVs, cetuximab was first reacted with a 20-fold molar excess of BG-GLA-NHS for 30 minutes at room temperature. Then, the mixture was subjected to a 7 K MWCO Zeba spin desalting column to remove unconjugated BG-GLA-NHS. […] The green fluorescence of the sEVs and the red fluorescence of the Dox were observed using an epi-fluorescence microscope. […] Thereafter, the cells were washed with 1 ml of PBS to remove extracellular sEVs, and the sEVs internalized into the cells were imaged to quantify delivery efficiency. In addition, fluorescence trajectories of individual sEVs in the cells were obtained. […]

Data set [2] relates to A549-Luc2 cells. Kind of data set: Tumor targeting / biodistribution of DiR-labeled sEVs in tumor-bearing mice. The data set is classed as in vivo, BALB/c-nu mice. As to conditions: intravenous; 4 hours after injection; compared to non-targeted sEVs (wt sEV and sEV-CAP without Y). The procedure:
A schematic diagram of the drug administration schedule in mice for the tumor targeting analysis of cetuximab (ScFv-Fc format)-conjugated […] is shown in FIG. 24. […] All animal experiments were performed in accordance with the animal experiment guidelines approved by the Institutional Animal Care and Use Committee (IACUC) of DGIST (approval number 23032701-0000). Male BALB/c-nu mice (6 to 8 weeks old, Orient Bio) were used for the study. A549-Luc2 cells (1 × 10^7 cells in 100 μl of PBS) were mixed with an equal volume of Matrigel (Corning) and then subcutaneously injected into the mice. Tumor volume (V) was calculated as V = length × width^2 / 2. To analyze the biodistribution of sEVs, the mice were randomly grouped when the tumor volume reached approximately 600 mm^3. PBS or DiR-labeled sEVs (2 × 10^11 particles per mouse) were intravenously injected via the tail vein. The mice were euthanized 4 hours after injection, and major organs (tumor, heart, lungs, liver, spleen, and kidneys) were collected to quantify fluorescence signals using an in vivo imaging system (Perkin Elmer, IVIS Spectrum). […] Before euthanasia, bioluminescence signals were detected using an in vivo imaging system, and tumor tissue was excised, weighed, and subjected to histological analysis.

Data set [3] deals with A549 cells. The data set can be described thus: Dox cellular uptake / drug delivery assay (fluorescence imaging 2 hours after treatment). It counts as cell-based, human. As to conditions: versus sEV(Dox) without Y. The procedure: Specifically, doxorubicin (Dox), a chemotherapy drug, was encapsulated in sEV-CAP through electroporation and then conjugated with Y to produce sEV(Dox)-Y. To confirm the internal loading of Dox, the co-localization of EGFP and Dox fluorescence in sEV-CAP was verified through TIRF imaging, with the results shown in FIG. 21. […] In addition, cytotoxicity induced by sEV(Dox)-Y was evaluated 48 hours after treating A549 cells with sEV(Dox)-Y, with the results shown in FIG. 23. A549-Luc2 cells were seeded in a fibronectin-coated dish at a density of 5 × 10^3 cells per well. After 24 hours, the cells were incubated with different treatments according to the experimental focus. To prepare cetuximab-conjugated sEVs, cetuximab was first reacted with a 20-fold molar excess of BG-GLA-NHS for 30 minutes at room temperature. Then, the mixture was subjected to a 7 K MWCO Zeba spin desalting column to remove unconjugated BG-GLA-NHS. […] The green fluorescence of the sEVs and the red fluorescence of the Dox were observed using an epi-fluorescence microscope. […] Thereafter, the cells were washed with 1 ml of PBS to remove extracellular sEVs, and the sEVs internalized into the cells were imaged to quantify delivery efficiency. In addition, fluorescence trajectories of individual sEVs in the cells were obtained. […]

For data set [4], the system named is A549 cells. The data set can be described thus: MTS assay (cell viability / cytotoxicity). As to conditions: 48 hours after treatment. It counts as cell-based, human. The procedure: Specifically, doxorubicin (Dox), a chemotherapy drug, was encapsulated in sEV-CAP through electroporation and then conjugated with Y to produce sEV(Dox)-Y. To confirm the internal loading of Dox, the co-localization of EGFP and Dox fluorescence in sEV-CAP was verified through TIRF imaging, with the results shown in FIG. 21. […] In addition, cytotoxicity induced by sEV(Dox)-Y was evaluated 48 hours after treating A549 cells with sEV(Dox)-Y, with the results shown in FIG. 23. A549-Luc2 cells were seeded in a 96-well plate at a density of 1 × 10^4 cells per well. After 24 hours, the cells were cultured with Dox or sEVs loaded with Dox. Cell viability was analyzed using a CellTiter 96® AQueous one solution reagent. After adding 20 µl of the reagent, the microplate was incubated under humidified conditions (37 °C, 5 % CO2) for 1 hour, and then absorbance was measured at 490 nm.
(Formazan colour is commonly taken as a measure of viable cells.)

Data set [5] has as its system A549-Luc2 cells. Kind of data set: Therapeutic efficacy of Dox-loaded sEVs in tumor-bearing mice (bioluminescence, tumor volume and weight). It counts as in vivo, BALB/c-nu mice. As to conditions: Dox 1 mg kg^-1 intravenously six times at three-day intervals. The procedure:
A schematic diagram of the drug administration schedule in mice for a test confirming the drug delivery capability of cetuximab (ScFv-Fc format)-conjugated […] is shown in FIG. 28. Tumor-bearing mice were treated with an equivalent dose (1 mg kg^-1) of Dox, administered either in soluble form or encapsulated in non-targeted and targeted […], respectively). First, tumor bioluminescence was measured on the day of euthanasia after the administration of PBS, Dox, sEV(Dox), or sEV(Dox)-Y, and the quantified results are shown in FIG. 29. All animal experiments were performed in accordance with the animal experiment guidelines approved by the Institutional Animal Care and Use Committee (IACUC) of DGIST (approval number 23032701-0000). Male BALB/c-nu mice (6 to 8 weeks old, Orient Bio) were used for the study. […] Tumor volume (V) was calculated as V = length × width^2 / 2. […] The mice were euthanized 4 hours after injection, and major organs (tumor, heart, lungs, liver, spleen, and kidneys) were collected to quantify fluorescence signals using an in vivo imaging system (Perkin Elmer, IVIS Spectrum). […] Before euthanasia, bioluminescence signals were detected using an in vivo imaging system, and tumor tissue was excised, weighed, and subjected to histological analysis.

Data set [6] concerns A549-Luc2 cells. Kind of data set: TUNEL analysis and histopathological analysis (hematoxylin and eosin) of tumor tissue after drug treatment. The data set is classed as in vivo, BALB/c-nu mice. The procedure: To further evaluate the apoptosis enhanced by sEV(Dox)-Y, terminal deoxynucleotidyl transferase dUTP nick end labeling (TUNEL) analysis was performed, with the results shown in FIG. 33, and histopathological analysis was performed, with the results shown in FIG. 34.
The tissues harvested from mice in Reference Example 14 were fixed in 4 % paraformaldehyde, dehydrated with 30 % sucrose in PBS, and then embedded in OCT compound. The frozen tissues were sectioned at a thickness of 10 µm, and the slides were washed with PBS. Apoptosis was detected using a TUNEL assay kit following the manufacturer's instructions. Nuclei were stained with DAPI for 5 minutes at room temperature. After washing with PBS, the samples were mounted using an antifade mounting medium. For hematoxylin and eosin staining, the slides were stained with hematoxylin for 3 minutes and washed with sterile distilled water. Subsequently, the slides were stained with eosin for 1 minute and washed with water. After dehydration in 95 % and absolute ethanol, the samples were mounted using a mounting medium.

Take sEV-Y: in data set [1] (compared with the sEV-CAP without Y, over 1 hour after treatment), the “improvement in specific targeting (amount of sEV on the cell surface, EGFP fluorescence intensity)” value is on record as “approximately 3.8 fold”. In addition, the “internalization and diffusion type (MSD analysis)” value in data set [1] (trajectories 2 hours after treatment) is “internalized and exhibited superdiffusion”. The “accumulation at the tumor site (DiR fluorescence intensity)” value in the data set on A549-Luc2 cells [2] is “significant accumulation at the tumor site”.

As to sEV(Dox)-Y, in the data set with A549 cells [3], the drug delivery efficiency result is “improved drug delivery efficiency”. In addition, the cytotoxicity result with A549 cells [4] is listed as “significantly increased cytotoxicity”. For the same substance, the “reduction of tumor bioluminescence” value with A549-Luc2 cells [5] (day of euthanasia, compared to the untreated control group) is recorded as 90%. Besides, the “tumor growth (tumor volume and weight)” value in the data set with A549-Luc2 cells [5] (measured after euthanasia) is reported as “inhibited tumor growth more effectively”. Moreover, the “histopathology of tumor tissue” value in the data set on A549-Luc2 cells [6] (hematoxylin and eosin staining after drug treatment) was “severe destruction of tissue structure and extensive necrosis within the tumor”. The “level of GFP bound to fragmented DNA (TUNEL signal), increase” value in the data set on A549-Luc2 cells [6] (tumor tissue after drug treatment, compared to the control group) is 4.8 fold.
